These results are taken from patent US20040175796A1 (SOLVAY PHARMACEUTICALS B V, published 2004).

Chains of the proteins cited; added tags and fusions are not shown. A line that says so, or that is headed by a name, gives the form on record, which may keep a tag or linker.
UniProt Q9GZQ4, other isoform, or with tags, fused parts or gaps: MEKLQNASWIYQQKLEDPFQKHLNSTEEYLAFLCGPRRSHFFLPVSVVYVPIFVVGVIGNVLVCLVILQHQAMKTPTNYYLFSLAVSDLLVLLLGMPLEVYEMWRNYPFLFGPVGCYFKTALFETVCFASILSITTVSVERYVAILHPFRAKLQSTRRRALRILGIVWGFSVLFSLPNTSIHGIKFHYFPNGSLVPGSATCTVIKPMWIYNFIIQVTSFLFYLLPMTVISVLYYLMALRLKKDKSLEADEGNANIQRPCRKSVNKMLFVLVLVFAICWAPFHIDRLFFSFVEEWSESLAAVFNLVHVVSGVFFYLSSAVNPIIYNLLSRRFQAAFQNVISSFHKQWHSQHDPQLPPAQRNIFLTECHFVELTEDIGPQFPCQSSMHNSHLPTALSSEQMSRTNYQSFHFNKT

The assay concerns the target IGS4A (IGS4APROT), human G-protein coupled receptor IGS4, polymorphic form A (human, UniProt Q9GZQ4 4-415). The experiment in a line: cell-based or functional assay.

B1: porcine Neuromedin U-8 (peptide, UniProt P34964 158-165, looked up)
peptide: YFLFRPRN
modifications: C-terminal amide (the filing says mammalian neuromedins share the C-terminal sequence -Phe-Leu-Phe-Arg-Pro-Arg-Asn-amide)
Take B1: the “EC50, calcium mobilisation (FLIPR)” value was 0.485 nM and the “log EC50, calcium mobilisation (FLIPR)” value was -9.3 log M.

B2: porcine Neuromedin U25 (peptide, UniProt P34964 141-165, looked up)
peptide: FKVDEEFQGPIVSQNRRYFLFRPRN
modifications: C-terminal amide (the filing says mammalian neuromedins share the C-terminal sequence -Phe-Leu-Phe-Arg-Pro-Arg-Asn-amide)
Take B2: the “EC50, calcium mobilisation (FLIPR)” value was determined as 658 nM and the “log EC50, calcium mobilisation (FLIPR)” value was -6.18 log M.
